Assay results: PubChem BioAssay AID738 (SRMLSC, 2007)
Only a part is listed here, and it is no random draw. Active and inactive are the calls of the source. No stated cut-off is given here; in the data, active means inhibition above about 30%; inactive means the rest.

Experiment: growth inhibition of yeast control strain, primary screen, counter-screen for post-Golgi transport modulator project (AID 738)
Settings: efflux-deficient yeast background strain, growth absorbance A615, 16 h; at 10 µM; hits give high values

Compound	inhibition
CP(=O)(OC12CC3CC(CC(C3)C1)C2)OC12CC3CC(CC(C3)C1)C2	active: 38.9%
CC(C)(C)c1ccc(OP(C)(=O)O)cc1	inactive: 8.61%
CP(=O)(Nc1ccc(Cl)cc1)Oc1ccc(F)cc1 (configuration not stated)	inactive: 18.4%
CCN(CC)CC(O)COC(=O)C(O)(c1ccccc1)C1CCCCC1 (configuration not stated)	inactive: 4.08%
CP(=O)(Oc1ccccc1)N1CCOC1=O (configuration not stated)	inactive: -0.3%
Cc1c(NP(C)(=O)Oc2ccc(C(C)C)cc2)c(=O)n(-c2ccccc2)n1C (configuration not stated)	inactive: -3.17%
CP(=O)(Nc1ccccn1)Oc1ccccc1 (configuration not stated)	inactive: -0.88%
COc1ccccc1OP(C)(=O)Nc1ccc(C)cc1C (configuration not stated)	inactive: 1.98%
CCc1ccc(OP(C)(=O)O)cc1	inactive: 17.9%
COc1ccc(OP(C)(=O)Nc2ccccn2)cc1 (configuration not stated)	inactive: -5.25%
CN(C)CCOC(=O)C(O)(c1ccccc1)C1CCCC1 (configuration not stated)	inactive: 22.7%
Cc1nc2ccc3ccccc3c2o1.O=[N+]([O-])c1cc([N+](=O)[O-])c(O)c([N+](=O)[O-])c1	inactive: 6.65%
COc1ccccc1OP(C)(=O)Nc1ccc(C)c(C)c1 (configuration not stated)	inactive: -11.2%
CP(=O)(Nc1ccccc1)Oc1ccc(F)cc1 (configuration not stated)	inactive: 8.72%
CP(=O)(Nc1ccccc1F)Oc1ccccc1 (configuration not stated)	inactive: 2.1%
CP(=O)(Nc1ccc2c(c1)OCCO2)Oc1ccccc1 (configuration not stated)	inactive: -5.93%

Compound	inhibition
Cc1ccccc1NP(C)(=O)Nc1ccccc1C	inactive: -3.57%
CCOP(C)(=S)SCC(=O)NC(C)(CC)C(=O)O (configuration not stated)	inactive: 19.6%
COc1ccc(OP(C)(=O)Nc2cccc(Br)c2)cc1 (configuration not stated)	inactive: 19.1%
CN(C)CCOC(=O)C(O)(c1ccccc1)C1CCCCC1 (configuration not stated)	inactive: 8.53%
COc1ccccc1OP(C)(=O)Nc1c(C)cccc1C (configuration not stated)	inactive: 5.38%
Cc1nc2ccc3ccccc3c2s1.O=[N+]([O-])c1cc([N+](=O)[O-])c(O)c([N+](=O)[O-])c1	inactive: 8.37%
Cc1ccc(C)c(NP(C)(=O)Oc2ccccc2)c1 (configuration not stated)	inactive: 3.02%
Cc1cc(C)cc(OP(C)(=O)Nc2ccccn2)c1 (configuration not stated)	inactive: 15.2%
Cc1cc(C)cc(OP(C)(=O)Nc2ccc(C)cc2C)c1 (configuration not stated)	inactive: 24.4%
COc1ccccc1OP(C)(=O)Nc1ccc(C)cc1 (configuration not stated)	inactive: 1.73%
Cc1ccc(NP(C)(=O)Oc2ccccc2)c(C)c1 (configuration not stated)	inactive: 11.4%
COc1ccc(OP(C)(=O)Nc2cccc(F)c2)cc1 (configuration not stated)	inactive: -8.83%
CCOP(C)(=S)SCC(=O)NC(C)C(=O)O (configuration not stated)	inactive: 3.07%
CP(=O)(Nc1ccccn1)Oc1ccc(Cl)cc1 (configuration not stated)	inactive: 0.76%
CP(=O)(NC(=O)Nc1ccccc1)Oc1ccccc1 (configuration not stated)	inactive: 0.73%
CP(=S)(Nn1cnnc1)Oc1ccccc1 (configuration not stated)	inactive: -2.8%
